Assays:
[1] = molecular target: Alpha-2 adrenergic receptor (Mus musculus, UniProt P30545+Q01338+Q01337); test: Compound was evaluated for inhibition of binding of [3H]-MK-91 to Alpha-2 adrenergic receptor in mouse NG-108 cells; format: cell-based
[2] = molecular target: T1, Alpha-1A adrenergic receptor (Rattus norvegicus, UniProt P43140); test: Overall binding displacement in tissues containing only the Alpha-1A adrenergic receptor from rat submaxillary gland
T1 sequence (P43140 whole entry): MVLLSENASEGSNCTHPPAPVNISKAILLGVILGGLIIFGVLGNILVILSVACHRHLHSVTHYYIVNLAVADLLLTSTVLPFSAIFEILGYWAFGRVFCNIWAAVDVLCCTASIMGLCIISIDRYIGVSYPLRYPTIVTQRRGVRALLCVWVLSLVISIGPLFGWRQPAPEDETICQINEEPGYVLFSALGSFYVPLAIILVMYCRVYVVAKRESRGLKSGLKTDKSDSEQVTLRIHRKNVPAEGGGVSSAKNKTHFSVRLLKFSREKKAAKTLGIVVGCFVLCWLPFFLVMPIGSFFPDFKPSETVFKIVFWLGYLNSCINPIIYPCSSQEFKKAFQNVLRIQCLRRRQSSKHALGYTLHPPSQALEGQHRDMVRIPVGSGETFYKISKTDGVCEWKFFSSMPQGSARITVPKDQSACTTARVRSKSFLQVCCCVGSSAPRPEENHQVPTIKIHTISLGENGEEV

Chains of the proteins cited; added tags and fusions are not shown. Lines headed by an entry give the natural chain unless they say otherwise; changes in a name come on top.
UniProt P30545: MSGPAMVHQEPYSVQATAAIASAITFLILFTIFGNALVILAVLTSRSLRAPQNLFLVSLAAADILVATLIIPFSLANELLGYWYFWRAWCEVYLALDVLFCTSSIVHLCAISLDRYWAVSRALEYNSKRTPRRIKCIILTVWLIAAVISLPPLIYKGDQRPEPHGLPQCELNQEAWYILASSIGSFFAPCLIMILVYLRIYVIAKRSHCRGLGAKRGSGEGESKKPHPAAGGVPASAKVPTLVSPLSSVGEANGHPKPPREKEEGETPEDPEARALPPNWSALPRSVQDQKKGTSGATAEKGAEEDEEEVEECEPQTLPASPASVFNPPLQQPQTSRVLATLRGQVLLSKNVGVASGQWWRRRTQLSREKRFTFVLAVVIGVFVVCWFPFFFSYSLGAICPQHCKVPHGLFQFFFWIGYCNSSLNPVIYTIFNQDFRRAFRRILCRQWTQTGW
UniProt Q01338: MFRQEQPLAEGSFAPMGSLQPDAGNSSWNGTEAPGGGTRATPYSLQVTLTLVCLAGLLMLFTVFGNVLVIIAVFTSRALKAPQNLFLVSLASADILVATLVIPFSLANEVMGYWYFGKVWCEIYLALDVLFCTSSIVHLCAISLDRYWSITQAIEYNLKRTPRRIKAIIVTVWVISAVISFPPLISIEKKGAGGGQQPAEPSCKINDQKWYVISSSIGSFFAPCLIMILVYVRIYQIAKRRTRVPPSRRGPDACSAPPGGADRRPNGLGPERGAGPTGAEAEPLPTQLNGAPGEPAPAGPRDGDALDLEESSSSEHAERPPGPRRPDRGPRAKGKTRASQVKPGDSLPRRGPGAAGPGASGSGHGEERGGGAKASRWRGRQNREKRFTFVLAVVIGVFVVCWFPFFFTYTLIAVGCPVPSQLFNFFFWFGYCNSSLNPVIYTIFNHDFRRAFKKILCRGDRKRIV
UniProt Q01337: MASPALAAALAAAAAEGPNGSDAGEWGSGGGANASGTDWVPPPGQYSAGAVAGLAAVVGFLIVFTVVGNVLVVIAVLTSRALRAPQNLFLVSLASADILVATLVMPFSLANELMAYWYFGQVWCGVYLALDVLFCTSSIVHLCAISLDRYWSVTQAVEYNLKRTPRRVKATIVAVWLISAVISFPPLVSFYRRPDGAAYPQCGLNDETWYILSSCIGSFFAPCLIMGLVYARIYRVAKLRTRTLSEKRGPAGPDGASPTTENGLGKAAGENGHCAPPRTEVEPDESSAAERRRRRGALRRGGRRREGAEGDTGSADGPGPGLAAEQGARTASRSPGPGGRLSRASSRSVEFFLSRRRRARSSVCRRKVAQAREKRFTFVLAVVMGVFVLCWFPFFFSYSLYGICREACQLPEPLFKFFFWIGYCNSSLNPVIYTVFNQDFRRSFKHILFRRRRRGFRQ
UniProt P18871, whole entry: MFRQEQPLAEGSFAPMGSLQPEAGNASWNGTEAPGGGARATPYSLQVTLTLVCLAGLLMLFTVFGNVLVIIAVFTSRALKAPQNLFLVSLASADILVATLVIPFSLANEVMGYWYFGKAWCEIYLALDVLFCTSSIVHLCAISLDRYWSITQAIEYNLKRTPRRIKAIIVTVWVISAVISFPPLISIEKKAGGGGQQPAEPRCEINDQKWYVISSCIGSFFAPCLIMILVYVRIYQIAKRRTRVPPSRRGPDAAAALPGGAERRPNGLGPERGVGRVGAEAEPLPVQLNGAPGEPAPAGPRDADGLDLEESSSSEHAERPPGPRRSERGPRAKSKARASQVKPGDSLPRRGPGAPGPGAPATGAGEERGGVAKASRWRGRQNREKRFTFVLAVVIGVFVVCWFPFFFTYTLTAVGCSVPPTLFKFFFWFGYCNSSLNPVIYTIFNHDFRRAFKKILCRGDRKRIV

[3] = molecular target: Alpha-2A adrenergic receptor (Sus scrofa, UniProt P18871); test: Compound was evaluated for inhibition of binding of [3H]yohimbine to Alpha-2 adrenergic receptor in porcine alpha2-clone

## COc1cc2nc(N3CCN(C(=O)c4ccco4)CC3)nc(N)c2cc1OC [PRAZOSIN]
[1]
  Ki: 13 nM

## O=C(CCCN1CCC2(CC1)C(=O)NCN2c1ccccc1)c1ccc(F)cc1 [SPIPERONE]
[2]
  Ki: 7.2 nM

## COC(=O)[C@@H]1[C@H]2C[C@H]3c4[nH]c5ccccc5c4CCN3C[C@@H]2CC[C@@H]1O [YOHIMBINE]
[3]
  Ki: 4.4 nM
